Data on one compound can be found in patent US20060134102A1, “Lymphotoxin beta receptor agents in combination with chemotherapeutic agents” (Biogen Idec MA Inc., priority 2002, published 2006).

The subject of the experiment is WiDr human colorectal adenocarcinoma. Put plainly: WiDr xenograft model: growth of established WiDr human colorectal tumors in athymic nude mice (tumor volume/weight, % T/C, Fa, Combination Index). Conditions: Adriamycin 6 mg/kg; day 35. In general terms: A xenograft is tissue or cells of one species grown in another, often human tumour cells in immunodeficient mice.

For the compound `COc1cccc2c1C(=O)c1c(O)c3c(c(O)c1C2=O)C[C@@](O)(C(=O)CO)C[C@@H]3O[C@H]1C[C@H](N)[C@H](O)[C@H](C)O1` [Adriamycin, adriamycin], the “Tumor volume, individual animals” value is reported as 1059.5.
